Screening results (PubChem BioAssay)
ClpP mod = qHTS Assay for Activators of ClpP; ATP-dependent Clp protease proteolytic subunit (Bacillus subtilis (strain 168)), P80244; purified B. subtilis ClpP, FRET peptide cleavage, 20 min; Potency, µM (top dose mostly 57.5 µM), inactives show at the top dose activity change, negative = active; 340,000 tested, 1.9% active; active means well fitted falling curve with a large enough effect; inconclusive means small, poorly fitted or top-dose-only effect; inactive means no such curve, though single readings can be large or run the other way; further: potency means the concentration at half of the fitted maximal effect; the source files actives as falling curves though it sought activators and does not explain the sign; nearly all actives have a fitted effect of over 65% in size
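Purified B. subtilis ClpP, 10 microg/mL final in Tris/HCl pH8 with KCl, BSA, glycerol and Tween-20, cleaved an Abz/nitrotyrosine-quenched decapeptide. Fluorescence (ex 320, em 430) was read at 0 and 20 min at room temperature. Delta was normalized to 5.8 microM ADEP and DMSO/no-enzyme controls.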
Nrf2 inh = Nrf2 pathway inhibition | A549 ARE-Fluc reporter, luciferase luminescence, 18-24 h | Potency, µM (titrated, usually from 46 µM), inactives show top-dose activity change, negative = inhibition, most hits filed as inhibitors | 360,000 tested, 2.1% active; further: potency means the concentration at half of the fitted maximal effect; on the % scale 0 is the no-effect control and ±100 the full control effect; nearly all actives have a fitted effect of over 60% in size
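Reporter: ARE-Fluc in A549. Exposure: 18-24 h, 37 °C, 5% CO2, 5% FBS OPTI-MEM. Readouts: fluorescent cytotoxicity (CellTiter-Fluor), then luminescent Nrf2 signal after BugLite.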
miR-21 reporter = miR-21 reporter, rising signal | HeLa miR-21 FLuc reporter, luciferase, 48 h | Potency, µM (highest dose often 38.3 µM), for inactives: at the top dose reporter change, positive = more light | 340,000 tested, under 10 active | AID 2288; active = well fitted rising curve with a large enough effect; inconclusive = small, poorly fitted or top-dose-only effect; inactive = no such curve, though single readings can be large or run the other way;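 further: % of control where 0% means no effect; miR-21 action dims this reporter so a rising signal means less miR-21 action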
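HeLa cells stably expressing CMV-driven firefly luciferase with a downstream miR-21 binding sequence, endogenously expressing miR-21, were treated with titrations (up to about 40uM final) for 48 hours at 37 degree Celsius. Luciferase luminescence was read after lysis.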
A549 tox = kills or reduces viability of A549 cells in Nrf2 counter-screen; A549 ARE-Fluc cells, CellTiter-Fluor viability, 18-24 h; Potency, µM (top dose mostly 46 µM), inactives show top-dose activity change, negative = cytotoxicity, usual class: inhibitors; 390,000 tested, 0.16% active; AID 504648; further: potency means the concentration at half of the fitted maximal effect; on the % scale 0 is the no-effect control and ±100 the full control effect
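A549 ARE-Fluc cells in 5% FBS OPTI-MEM, 5000 cells/well, rested 2 h then exposed to compounds in concentration-response for 18-24 h at 37 °C. Viability by CellTiter-Fluor fluorescence (Ex 405/Em 525) after 30 min; luciferase luminescence (BugLite, 15 min, RT) read afterwards.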
IL2 activator = activators of IL-2; IL-2 activation reporter assay, cell-based qHTS; stimulated with anti-CD3/CD4/CD28 beads; in transgenic mouse T cells; activation, % (series mostly up to about 46 µM); 360,000 tested, 0.065% active; AID 652025; in the data active means activation above about 50%; inconclusive means mostly about 30% to 49%; further: 0% is about no effect
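Unstimulated transgenic mouse T cells preincubated 60 min with compound, then stimulated with anti-CD3/anti-CD4-coated beads plus anti-CD28 for 18 h at 37 degrees C. IL-2 response read as EGFP and DsRed fluorescence by plate cytometry.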
Nrf2 activator = activators of Nrf2 (ARE) signaling; 410,000 tested, 0.31% active; AREc32 ARE-luciferase reporter (MCF7-derived line), luminescence, 24 h; Potency, µM (doses to about 46.1 µM), for inactives: top-dose activation, hits mostly activators; AID 624171; further: potency means the concentration at half of the fitted maximal effect; % of control where 0% means no effect; nearly all actives have a fitted effect of over 65% in size
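AREc32 cells carrying an ARE-driven firefly luciferase reporter were seeded at 1000 cells/well in OPTI-MEM with 5% FBS, then exposed to compound for 24 hr at 37 deg C. Luminescence was read with Steady-Glo after 30 min at RT.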
Starred values were filed as active, the others as inactive; u = inconclusive; x = not tested or not shown; [ ] = dose if it differs, or a comment. An excerpt weighted towards active compounds, which were near 3.7% of everything screened. Unless noted, the call rests on the fitted dose curve; in most records, active means well fitted curve in the direction sought with a large enough effect; inconclusive means small, poorly fitted or top-dose-only effect, or another doubt; inactive means no such curve, though single readings can be large; an effect the other way counts as inactive or inconclusive.

SMILES | ClpP mod | Nrf2 inh | miR-21 reporter | A549 tox | IL2 activator | Nrf2 activator
Cc1nc(SC(C)C(=O)Nc2ccccc2C)cc(-c2ccccc2)n1 (stereo not drawn) | -0.7% | -17.2% | -1.3% | 0.2% | x | 6.4%
O=C1NCCc2c1[nH]c1ccccc21 | 25.1µM* | -3.7% | -0.8% | -9.8% | 0.9 | 0.0%
CC1=C(C#N)C(c2cccnc2)C2=C(CC(c3ccc(Cl)cc3)CC2=O)N1 (stereo not drawn) | 28.2µM* | 2.0% | -0.9% | -1.1% | -2.6 | -0.4%
O=C(O)CCc1ccc(S(=O)(=O)Nc2ccccc2C(=O)NCCc2ccccc2)cc1 | x | u | -60.3% | 0.3% | -0.1 | 7.0%
CC(NC(=O)c1ccccc1NS(=O)(=O)c1ccc(CCC(=O)O)cc1)c1ccccc1 (stereo not drawn) | 28.2µM* | 0.1% | -0.8% | 0.4% | -0.5 | -0.4%
O=C(Nn1c(C2CCCCC2)nc2ccccc2c1=O)c1ccc([N+](=O)[O-])cc1 | x | 23.1µM* | 6.2% | u | 6.8 | 3.7%
CC1(C)CC[C@]2(C(=O)O)CC[C@]3(C)C(=CC[C@@H]4[C@@]5(C)CC[C@H](O[C@@H]6O[C@H](C(=O)O)[C@@H](O)[C@H](O[C@@H]7OC[C@H](O)[C@H](O)[C@H]7O)[C@H]6O)C(C)(C)[C@@H]5CC[C@]43C)[C@@H]2C1 | 0.5% | 20.6µM* | x | u | -0.8 | -2.6%
O=c1c2c(nc3cc(-c4cccc(Cl)c4)[nH]n13)CCC2 | 28.2µM* | 9.2% | -58.2% | -3.5% | -1.6 | 2.7%
O=c1c2c(nc3cc(-c4cccc(F)c4)[nH]n13)CCC2 | x | u | -58.4% | -0.3% | 1.6 | 13.6%
O=c1c2c(nc3cc(-c4ccc(F)cc4)[nH]n13)CCCC2 | 10µM* | x | -25.6% | -2.5% | -0.3 | -1.0%
O=c1c2c(nc3cc(-c4ccc(Cl)cc4)[nH]n13)CCS2 | -5.5% | 7.6% | -54.9% | -4.0% | 1.9 | 0.9%
O=[N+]([O-])c1ccc(-c2cc3ccccc3[nH]2)cc1 | 1.0% | x | x | x | x | x
COc1cccc(Cn2nnc(C(=O)NCc3ccc(Cl)cc3Cl)c2N)c1 | -2.2% | 7.3%[9.27 µM] | 2.4% | -19.6% | x | 0.3%
CC1CCc2nc3ncn(Cc4ccc(Cl)cc4)c(=O)c3cc2C1 (stereo not drawn) | -3.1% | x | -51.2% | -2.8% | x | 3.9%
Cc1ccc(NC(=O)c2cc(C)nc3c2c(C)nn3-c2cccc(Cl)c2C)c(C)c1 | -4.5% | 28.8% | -0.2% | -4.2% | x | 0.7%
CC(C)c1ccc(NC(=O)CCS(=O)(=O)c2ccc3c(c2)CC(=O)N3C)cc1 | -13.6% | u | 1.2% | -1.5% | x | 0.4%
COCC(C)n1c(SCC(=O)N2CCc3ccccc3C2)nc2ccccc2c1=O (stereo not drawn) | 12.6µM* | u | 10.4% | 0.1% | -6.7 | 0.1%
O=C1CN(S(=O)(=O)c2c(F)cccc2F)CCN1S(=O)(=O)c1ccc2c(c1)OCCO2 | x | -13.5% | x | -1.0% | x | x
COC(=O)c1ccccc1N(C)S(=O)(=O)c1cc2c3c(c1)CC(=O)N3CCC2 | -15.5% | x | -4.5% | 7.3% | x | 0.0%
COc1ccc(OC)c(NC(=O)c2ccc(CSc3nnc(C)s3)cc2)c1 | x | 25.9µM* | 4.0% | 5.5% | -0.1 | 0.2%
Cc1cc(C)cc(NC(=O)c2ccc(CSc3nnc(C)s3)cc2)c1 | -0.2% | 9.0% | -23.9% | -1.4% | -0.6 | 3.4%
O=C(NC1CCCCC1)C(c1ccc2ncccc2c1)N(Cc1ccccc1)C(=O)c1cccs1 (stereo not drawn) | -0.1% | 18.4µM* | -1.5% | -26.5% | 0.8 | 2.6%
Cc1cc(C)nc(NC(=O)/C=C/c2ccccc2Cl)c1 | 1.0% | 4.7% | -64.9% | -1.7% | 1.5 | u
Cc1cc(C)nc(NC(=O)/C=C/c2ccccc2Cl)n1 | 0.5% | x | -37.9% | -5.7% | -3.3 | 8.91µM*
Cc1nn2c3c(cnc2c1-c1ccccc1)C(=O)CC(c1ccco1)C3 (stereo not drawn) | 21.4% | -24.8% | -6.3% | -12.4% | -1.3 | 1.26µM*

Rewritten as labelled records: part of the list above
COc1ccc(OC)c(NC(=O)c2ccc(CSc3nnc(C)s3)cc2)c1
  ClpP mod: x; Nrf2 inh: 25.9µM*; miR-21 reporter: 4.0%; A549 tox: 5.5%; IL2 activator: -0.1; Nrf2 activator: 0.2%
Cc1cc(C)cc(NC(=O)c2ccc(CSc3nnc(C)s3)cc2)c1
  ClpP mod: -0.2%; Nrf2 inh: 9.0%; miR-21 reporter: -23.9%; A549 tox: -1.4%; IL2 activator: -0.6; Nrf2 activator: 3.4%
O=C(NC1CCCCC1)C(c1ccc2ncccc2c1)N(Cc1ccccc1)C(=O)c1cccs1 (stereo not drawn)
  ClpP mod: -0.1%; Nrf2 inh: 18.4µM*; miR-21 reporter: -1.5%; A549 tox: -26.5%; IL2 activator: 0.8; Nrf2 activator: 2.6%
Cc1cc(C)nc(NC(=O)/C=C/c2ccccc2Cl)c1
  ClpP mod: 1.0%; Nrf2 inh: 4.7%; miR-21 reporter: -64.9%; A549 tox: -1.7%; IL2 activator: 1.5; Nrf2 activator: u

The list goes on.
SMILES | ClpP mod | Nrf2 inh | miR-21 reporter | A549 tox | IL2 activator | Nrf2 activator
c1nc(NCCCN2CCOCC2)c2cc(-c3ccc4c(c3)OCO4)ccc2n1 | x | -26.9% | x | 15.1% | x | x
CCc1cc2c(NCC3CCCO3)ncnc2s1 (stereo not drawn) | -4.4% | u | 0.3% | -8.2% | 0.6 | -0.7%
Cc1sc2ncnc(NCC3CCCO3)c2c1C (stereo not drawn) | -5.6% | 20.6µM* | -6.6% | -11.7% | 0.1 | -0.5%
CCOC(=O)c1ccc(NC(=O)Cn2ncc3c(C)n(Cc4ccccc4F)c(C)c3c2=O)cc1 | -22.9% | -0.8% | -18.1% | 0.3% | x | 0.1%
CC(=O)N/C(=C\c1ccccc1)C(=O)OCc1cccc(S(=O)(=O)N(C)C)c1 | -3.6% | 23.1µM* | 12.1% | -3.8% | -0.6 | 2.5%
CC(=O)N/C(=C\c1ccccc1)C(=O)OCc1ccccc1 | 0.3% | 6.9% | -1.6% | -3.0% | -1.1 | 0.2%
CCCC(=O)c1c[nH]c(C(=O)NCCCN2CCOCC2)c1 | 25.1µM* | 1.2% | 0.2% | 7.6% | -0.7 | 0.4%
CCC(=O)c1c[nH]c(C(=O)NCCCN2CCOCC2)c1 | -1.0% | x | -7.1% | -4.2% | -0.5 | 6.1%
Cc1c(Br)cc(C(=O)NCCCN2CCOCC2)c(C)c1C | 15.8µM* | 2.0% | -5.4% | -6.9% | 0.0 | -0.7%
O=C(NCCCN1CCOCC1)c1ccc(Br)cc1Br | x | x | -13.9% | x | x | x
Cc1ccc(NS(=O)(=O)c2ccc3c(c2)CC(C)N3C(=O)C2CCC2)cc1Cl (stereo not drawn) | -4.2% | 20.6µM* | 12.2% | -16.4% | x | 1.7%
O=C(C1CCC1)N1CCc2cc(S(=O)(=O)Nc3ccc4c(c3)OCO4)ccc21 | 2.2% | 10µM* | -1.6% | -7.7% | -2.6 | 0.4%
Cc1cc(Cl)ccc1NS(=O)(=O)c1ccc2c(c1)CC(C)N2C(=O)C1CCC1 (stereo not drawn) | -1.5% | 20.6µM* | 15.2% | -2.5% | x | 2.0%
CC(=O)Nc1ccc(NS(=O)(=O)c2ccc3c(c2)CC(C)N3C(=O)C2CCC2)cc1 (stereo not drawn) | -1.0% | 18.7% | 7.9% | -2.2% | x | 0.7%
CCOc1ccc(NS(=O)(=O)c2ccc3c(c2)CCN3C(=O)C2CCC2)cc1 | 1.0% | u | -1.2% | -7.7% | -0.1 | 0.3%
Cc1ccnc(NS(=O)(=O)c2ccc(Oc3ccccc3)cc2)c1 | 28.2µM* | -26.7% | -0.7% | -12.6% | 0.9 | -0.6%
O=C(CCCSc1ccc(Cl)cc1)Nc1ccccc1O | x | 2.1% | 7.4% | 2.2% | -0.6 | 14.1µM*
